The values below are quoted from earlier work in patent publication US20110054031A1, “Ophthalmic NSAIDS as Adjuvants” (ISTA Pharmaceuticals, Inc., priority 2008, published 2011).

Sequences of proteins named here, by UniProt entry; tags and fusion partners are left off. Residues count along the entry.
UniProt P23219, 24-599: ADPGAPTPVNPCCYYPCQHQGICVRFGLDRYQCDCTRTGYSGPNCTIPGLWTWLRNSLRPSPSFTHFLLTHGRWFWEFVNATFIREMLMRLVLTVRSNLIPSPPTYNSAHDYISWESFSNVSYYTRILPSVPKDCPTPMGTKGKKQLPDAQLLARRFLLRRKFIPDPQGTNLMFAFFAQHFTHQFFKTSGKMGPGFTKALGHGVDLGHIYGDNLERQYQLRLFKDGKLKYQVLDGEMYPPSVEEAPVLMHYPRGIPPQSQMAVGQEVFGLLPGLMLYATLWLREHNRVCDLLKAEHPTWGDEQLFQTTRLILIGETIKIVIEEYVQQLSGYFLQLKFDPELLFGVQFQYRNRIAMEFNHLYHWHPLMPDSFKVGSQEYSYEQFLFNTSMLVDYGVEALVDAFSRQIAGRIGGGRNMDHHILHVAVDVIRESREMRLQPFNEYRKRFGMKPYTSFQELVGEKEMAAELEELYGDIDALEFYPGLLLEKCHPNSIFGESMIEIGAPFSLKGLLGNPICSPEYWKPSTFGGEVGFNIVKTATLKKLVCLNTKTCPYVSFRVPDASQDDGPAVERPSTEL

The term IC50 denotes the concentration needed to halve the response being measured.

The target in this series is COX-1 (Homo sapiens, UniProt P23219). The following applies: read-out: IC50 COX-1; cited from earlier work.

For the compound `CC(C(=O)O)c1ccc(-c2ccccc2)c(F)c1` (racemic) [flurbiprofen, sodium (±)-2-(2-fluoro-4-biphenylyl)-propionate dihydrate], the IC50 was 82 nM.
